This passage reports inhibition results from PubChem BioAssay AID504634 (The Scripps Research Institute Molecular Screening Center, 2011).

By UniProt entry, the sequences of proteins in these tests, tags left out.
UniProt P47898, whole entry, looked up: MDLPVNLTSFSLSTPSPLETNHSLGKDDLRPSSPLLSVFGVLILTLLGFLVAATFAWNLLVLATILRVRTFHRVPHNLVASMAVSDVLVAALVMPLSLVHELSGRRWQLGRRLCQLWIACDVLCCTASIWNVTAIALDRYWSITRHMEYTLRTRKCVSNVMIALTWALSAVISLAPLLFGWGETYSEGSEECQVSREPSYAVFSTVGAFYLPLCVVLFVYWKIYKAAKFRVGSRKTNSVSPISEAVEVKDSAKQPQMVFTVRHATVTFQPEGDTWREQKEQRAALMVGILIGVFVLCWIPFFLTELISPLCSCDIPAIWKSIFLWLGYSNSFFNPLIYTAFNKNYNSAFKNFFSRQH

This is a selection; strong and weak results do not stand in their true shares. Activity calls are given as the source filed them. Cut-off read from the data, not from the text of the source: active = inhibition mostly above about 23% (no sharp cut-off); inactive = mostly below about 18%.

The assay deals with 5-hydroxytryptamine receptor 5A (Homo sapiens) (UniProt P47898). Description: HTR5A inverse agonists in luminescence cell assay, primary screen, counter-screen for OPRM1-OPRD1 heterodimer inverse agonist project, full-deck HTS (AID 504634).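 Note: 0% = cells with DMSO and 100% = no-cell wells with DMSO.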 The settings on record: HTR5A cell line, inverse agonism, at 9.3 µM, hits give high values. (Counterscreens check selectivity or assay interference.)
One may read the inhibition as the drop in the measured response relative to a control, in per cent. On to `CC(C)NC(=O)Cn1c(SCC(=O)N2CCc3ccccc3C2)nc2ccccc21`, for which the inhibition is inactive: -8.64%.
Regarding `Cc1cc(N2C(=O)CC(N3CCC(n4c(=O)[nH]c5ccccc54)CC3)C2=O)no1` (centres undefined), the inhibition was inactive: -7.78%.
`COc1cc(Cl)c(C)cc1NC(=O)Cn1c(NCCO)nc2ccccc21`: the inhibition was inactive: -14.1%.
`Cc1ccc(CNC(=O)CCCCCNC(=O)N2CCn3c2nc2ccccc23)cc1`: the inhibition is inactive: 9.54%.
As for `Brc1cccc(CNc2nc3ccccc3n2CCN2CCOCC2)c1`, the inhibition is inactive: 5.24%.
With `S=C(Nc1ccccc1)N1CCn2c(nc3ccccc32)C1`, the inhibition was inactive: -1.97%.
The value for `C[C@H](O)[C@@H]1C(=O)N2CCc3ccc(N4CCOCC4)cc3[C@@H]2C[C@@H]1N(C)C(=O)C(C)(C)C` was inactive: 11.1%.
As to `O=C(NCCn1c(C(F)(F)F)nc2cc(C(F)(F)F)ccc21)[C@H]1CCCN1c1nc(CN2CCCCC2)cs1`, the inhibition is inactive: -16.9%.
On to `Cc1cc(C)cc(NC(=O)Cn2c(-c3ccccc3Cl)nc3ccccc32)c1`, for which the inhibition was inactive: 13.4%.
Regarding `CC(C)(C)C(=O)NC(Sc1ncccn1)C(Cl)(Cl)Cl` (centres undefined), the inhibition was inactive: -15.1%.
Regarding `CCCC(=O)Nc1nnc(/C=C/c2ccccc2)s1`, the inhibition is inactive: -6.84%.
`Cn1c(=O)c2ncn(CC(=O)Nc3cc(C(F)(F)F)ccc3N3CCOCC3)c2n(C)c1=O`: the inhibition is inactive: -12.6%.
With `Cn1c(=O)c2c(ncn2CC(=O)Nc2nnc(Cc3ccccc3)s2)n(C)c1=O`, the inhibition is inactive: 3.33%.
For the molecule `COc1ccc(CNC(=O)Cn2cnc3c(SC)nc(N)nc32)cc1`, the inhibition was inactive: -8.03%.
As to `COc1ccc(OCC(O)Cn2c(=N)n(CCN3CCOCC3)c3ccccc32)cc1` (centres undefined), the inhibition was inactive: -3.73%.
As to `CN(C)CCn1c(NC(=O)c2ccc(Cl)cc2)nc2ccccc21`, the inhibition is inactive: -14.5%.
As to `O=C(Cn1c(C(F)(F)F)nc2ccccc21)Nc1ccccc1C(=O)O`, the inhibition was inactive: 10.5%.
Take `Clc1n[nH]nc1-c1nn[nH][15n]1`: the inhibition was inactive: 13.2%.
Then `COc1ccc(/C=N/NC(=O)Cn2c(Cc3ccc(OC)c(OC)c3)nc3ccccc32)cc1OC`, with inactive: -5.32%; and `Cc1ccc(CSc2nc3ccncc3n2CC(=O)Nc2cc(C)cc(C)c2)cc1`, with inactive: 3.47%; and `NNC(=O)Cn1c(-c2nonc2N)nc2ccccc21`, with inactive: 7.96%.
Regarding `CC(C)(C)NC(=O)Cn1c(=O)n(CC(=O)NC(C)(C)C)c2ccccc21`, the inhibition was inactive: 9.45%.
Then `O=C(Cn1c(SCc2ccccc2)nc2ccccc21)N1CCOCC1`, with inactive: -21%.
As to `Cn1c(=O)c2c(ncn2CC(=O)N2CCN(c3ccc(F)cc3)CC2)n(C)c1=O`, the inhibition is inactive: -5.79%.
With `CCCCNC(=O)CC1C(=O)N(Cc2ccccc2)C(C)c2nc3ccccc3n21` (centres undefined), the inhibition was inactive: 7.41%.
As for `CCOP(=O)(NC(=NC(C)c1ccccc1)NC(C)c1ccccc1)OCC` (centres undefined), the inhibition is inactive: -23.1%.
In the case of `O=C(Cn1c(NCCO)nc2ccccc21)NCCc1ccc(F)cc1`, the inhibition was inactive: 13.8%.
Turning to `CC(NC(=O)Cn1c(NCCO)nc2ccccc21)C1CC2CCC1C2` (centres undefined), the inhibition was inactive: 4.02%.
Regarding `CCN(CC)CCn1c(NCc2cccc(OC)c2)nc2ccccc21`, the inhibition is inactive: -9.16%.
Then `O=C(Cn1c(-c2cscn2)nc2ccccc21)Nc1ccc2ccccc2c1`, with inactive: -13.8%; and `CCC1=CC2Cc3nc4ccc(Cl)cc4c(N)c3C(C1)C2` (centres undefined), with inactive: 0.24%.
`Cn1c(=O)c2c(ncn2CC(=O)N2CCCc3ccccc32)n(C)c1=O`: the inhibition was inactive: 21.1%.
As for `COc1cccc(CNC(=O)CCCCCNC(=O)N2CCn3c2nc2ccccc23)c1`, the inhibition is inactive: -4.64%.
`O=P1(Nc2ccccn2)COc2ccccc2OC1`: the inhibition is inactive: -4.06%.
For `CC(c1ccccc1)N1CCn2c(nc3cc(NC(=O)NC4CCCCC4)ccc32)C1` (centres undefined), the inhibition was inactive: 25%.
Regarding `CC(C)NC(=O)CSc1nc2ccccc2n1CC(=O)N1CCc2ccccc21`, the inhibition is inactive: -2.35%.
Turning to `CC(C)C[C@H](NC(=O)N1CCn2c1nc1ccccc12)C(=O)N[C@@H](C(=O)O)c1ccccc1`, the inhibition is inactive: 4.58%.
`CN(C)C1(c2nnnn2CCOC(=O)Nc2ccc(Cl)cc2)CCCCC1`: the inhibition was inactive: -27.8%.
The value for `CC1c2nc3ccccc3n2C(CC(=O)NC2CC2)C(=O)N1Cc1ccccc1` (centres undefined) was inactive: 2.31%; that for `CNC(=O)Cn1c(=O)n(C)c2ccccc21` was inactive: 10.1%; that for `CCN1C(=O)CC(N2CCC(Nc3ccc(F)cc3)CC2)C1=O` (centres undefined) was inactive: -4.56%.
Then `CCOP(=O)(Nc1ccc(C)cn1)OCC`, with inactive: 3.21%; and `CSc1nc(N)nc2c1ncn2CC(=O)NCCNc1ccc([N+](=O)[O-])cn1`, with inactive: -1.53%.
Regarding `CCOC(=O)Cc1csc(NC(=O)Cn2cnc3c2c(=O)n(C)c(=O)n3C)n1`, the inhibition is inactive: 2.36%.
Turning to `CCOc1ccc(C(=O)N2CCn3c2nc2ccccc23)cc1`, the inhibition was inactive: -6.17%.
The value for `CCOC(=O)c1ccc(NC(=O)Cn2cnc3cc(C)c(C)cc32)cc1` was inactive: -2.63%.
In the case of `Cc1ccc(-c2nc(N(C)C3CCN(C)CC3)c3ccccc3n2)cc1`, the inhibition was inactive: -20.3%.
As for `O=C(Cn1c(CO)nc2ccccc21)NCc1ccc2c(c1)OCO2`, the inhibition was inactive: 5.4%.
Then `Cc1cccc(N2CCN(C(=O)Cn3cnc4c3c(=O)n(C)c(=O)n4C)CC2)c1C`, with inactive: -0.74%; and `COC(=O)[C@H](CCSC)NC(=O)Cn1cnc2c(OCc3ccccc3)ncnc21`, with inactive: 1.57%.
In the case of `O=C(Cn1c(COc2ccc(Cl)cc2)nc2ccccc21)NCC(F)(F)F`, the inhibition was inactive: -4.37%.
Take `C[C@H](O)[C@@H]1C(=O)N2CCc3ccc(-c4cccc(F)c4)cc3[C@@H]2C[C@@H]1N(C)C(=O)C(C)(C)C`: the inhibition was inactive: 12.1%.
Take `CCN(CC)CCn1c(NC(=O)c2ccc(C)cc2)nc2ccccc21`: the inhibition is inactive: -29.1%.
For the molecule `CN(C(=O)Cc1ccc(Cl)c(Cl)c1)[C@@H]1CCCC[C@H]1N1CCCC1`, the inhibition was inactive: -6.19%.
Then `CC(C)/C=N\N=C(\N)N[N+](=O)[O-]`, with inactive: -17.7%; and `COc1ccc(CCNC(=O)CCCCCNC(=O)N2CCn3c2nc2ccccc23)cc1OC`, with inactive: -10.6%; and `CCC(=O)Nc1ccc2c(c1)nc1n2CCN(C2CCCCC2)C1`, with inactive: 7.22%.
`O=C(Nc1nc2ccccc2n1CCN1CCOCC1)c1ccc(COc2ccccc2Br)o1`: the inhibition was inactive: -9.99%.
On to `Fc1ccc(Cn2nnnc2CN2CCC(n3nnc4cc(C(F)(F)F)ccc43)CC2)cc1`, for which the inhibition was inactive: 4.68%.
Take `CN(C)CCCNC(=S)N1CCn2c(nc3ccccc32)C1`: the inhibition was inactive: -26.2%.
Turning to `CC1(CBr)Cn2c(nc3ccccc3c2=O)S1` (centres undefined), the inhibition was inactive: 13.3%.
`COCCN(C(=O)Cn1c(C(F)(F)F)nc2ccccc21)c1c(N)n(Cc2ccccc2)c(=O)[nH]c1=O`: the inhibition is inactive: -14.6%.
`CC(C)CN(C(=O)Cn1c(C(F)(F)F)nc2ccccc21)c1c(N)n(Cc2ccccc2)c(=O)[nH]c1=O`: the inhibition is inactive: -6.66%.
As for `Brc1ccc(/C=N/c2nc3ccccc3n2CCN2CCOCC2)cc1`, the inhibition is inactive: 0.75%.
Turning to `c1coc(CNc2nc3ccccc3n2CCN2CCOCC2)c1`, the inhibition was inactive: 5.79%.
The value for `O=C(Cn1cnc2c(OCc3ccccc3)ncnc21)NCCc1c[nH]c2ccccc12` was inactive: -7.56%; that for `CC(CNC(=O)Cn1cnc2c(OCc3ccccc3)ncnc21)c1ccccc1` (centres undefined) was inactive: -8.1%; that for `O=C(CCCCCNC(=O)N1CCn2c1nc1ccccc12)N[C@H](Cc1ccccc1)C(=O)O` was inactive: 0.47%.
As to `CC1CN(C(=O)Cn2c(C(F)(F)F)nc3ccccc32)CC(C)O1` (centres undefined), the inhibition was inactive: -4.86%.
Consider `CCc1cccc(NC(=O)Cn2c3[n+](c4ccc(C(F)(F)F)cc42)CCCCC3)c1`, for which the inhibition is inactive: 1.57%.
With `NC(=O)CC(NC(=O)Cc1ccc(Cl)cc1)c1ccc(NC2CCN(Cc3ccccc3)CC2)c([N+](=O)[O-])c1` (centres undefined), the inhibition was inactive: -9.17%.
The value for `Cn1c(=O)n(Cc2ccccc2F)c(=O)c2c1nc1n2CCN1Cc1ccco1` was inactive: 1.24%.
On to `COC(=O)[C@H](Cc1ccccc1)NC(=O)Cn1cnc2c(OCc3ccccc3)ncnc21`, for which the inhibition is inactive: -1.13%.
As for `COc1cccc(NC(=S)N2CCn3c(nc4ccccc43)C2)c1`, the inhibition is inactive: -3.58%.
With `CC(C)C[C@H](NC(=O)N1CCn2c1nc1ccccc12)C(=O)NCc1ccc2c(c1)OCO2`, the inhibition is inactive: -7.87%.
As to `Cc1ccc(OCC(O)Cn2c(=N)n(CCN3CCCCC3)c3ccccc32)cc1` (centres undefined), the inhibition is inactive: 16.6%.
In the case of `N=c1n(CCN2CCCCC2)c2ccccc2n1CC(O)c1cccc(Br)c1` (centres undefined), the inhibition was inactive: -13.8%.
`CCN(CC)CCn1c(NCc2ccco2)nc2ccccc21`: the inhibition is inactive: -24.4%.
The value for `CS(=O)(=O)N1CCn2c1nc1ccccc12` was inactive: -11.1%.
With `Cc1nc2ccccc2n1CC(=O)N/N=C\C=C\c1ccccc1`, the inhibition is inactive: 1.57%.
Then `CCN(CC)c1ccc(CNc2nc3ccccc3n2CCN2CCCCC2)cc1`, with inactive: 10.1%; and `Cn1c(=O)c2ncn(CC(=O)N/N=C/C=C/c3ccccc3)c2n(C)c1=O`, with inactive: 0.08%.
With `COc1ccccc1C(=O)Nc1ccc2c(c1)nc1n2CCN(Cc2ccccc2)C1`, the inhibition was inactive: -7.74%.
For `Cc1ccc(NC(=O)C2CC(=O)Nc3nc4ccccc4n32)c(C)c1` (centres undefined), the inhibition was inactive: 14.2%.
For `O=C(CCNC(=O)N1CCn2c1nc1ccccc12)NCc1ccccc1`, the inhibition is inactive: -1.73%.
`COc1ccc(N(C(=O)Cn2cnc3ccccc32)C(C(=O)NC2CCCCC2)c2ccccc2)cc1` (centres undefined): the inhibition was inactive: 4.97%.
The value for `Cc1ccc2c(c1)C1CN(C)CCC1N2C(=O)c1cccc(S(=O)(=O)N2CC(C)CC(C)C2)c1` (centres undefined) was inactive: 10.1%.
Turning to `Cn1c(=O)c2c(nc(N3CCCCC3)n2CCNC2=NCCC2)n(C)c1=O`, the inhibition was inactive: 9.37%.
Consider `COc1ccccc1CNC(=O)COC(=O)C(O)(c1ccccc1)c1ccccc1`, for which the inhibition is inactive: -0.86%.
